Data published in patent US11912663B2 (dated 2024).

Sequences of proteins named here, by UniProt entry; tags and fusion partners are left off. Residues count along the entry.
UniProt P07949, 29-1114: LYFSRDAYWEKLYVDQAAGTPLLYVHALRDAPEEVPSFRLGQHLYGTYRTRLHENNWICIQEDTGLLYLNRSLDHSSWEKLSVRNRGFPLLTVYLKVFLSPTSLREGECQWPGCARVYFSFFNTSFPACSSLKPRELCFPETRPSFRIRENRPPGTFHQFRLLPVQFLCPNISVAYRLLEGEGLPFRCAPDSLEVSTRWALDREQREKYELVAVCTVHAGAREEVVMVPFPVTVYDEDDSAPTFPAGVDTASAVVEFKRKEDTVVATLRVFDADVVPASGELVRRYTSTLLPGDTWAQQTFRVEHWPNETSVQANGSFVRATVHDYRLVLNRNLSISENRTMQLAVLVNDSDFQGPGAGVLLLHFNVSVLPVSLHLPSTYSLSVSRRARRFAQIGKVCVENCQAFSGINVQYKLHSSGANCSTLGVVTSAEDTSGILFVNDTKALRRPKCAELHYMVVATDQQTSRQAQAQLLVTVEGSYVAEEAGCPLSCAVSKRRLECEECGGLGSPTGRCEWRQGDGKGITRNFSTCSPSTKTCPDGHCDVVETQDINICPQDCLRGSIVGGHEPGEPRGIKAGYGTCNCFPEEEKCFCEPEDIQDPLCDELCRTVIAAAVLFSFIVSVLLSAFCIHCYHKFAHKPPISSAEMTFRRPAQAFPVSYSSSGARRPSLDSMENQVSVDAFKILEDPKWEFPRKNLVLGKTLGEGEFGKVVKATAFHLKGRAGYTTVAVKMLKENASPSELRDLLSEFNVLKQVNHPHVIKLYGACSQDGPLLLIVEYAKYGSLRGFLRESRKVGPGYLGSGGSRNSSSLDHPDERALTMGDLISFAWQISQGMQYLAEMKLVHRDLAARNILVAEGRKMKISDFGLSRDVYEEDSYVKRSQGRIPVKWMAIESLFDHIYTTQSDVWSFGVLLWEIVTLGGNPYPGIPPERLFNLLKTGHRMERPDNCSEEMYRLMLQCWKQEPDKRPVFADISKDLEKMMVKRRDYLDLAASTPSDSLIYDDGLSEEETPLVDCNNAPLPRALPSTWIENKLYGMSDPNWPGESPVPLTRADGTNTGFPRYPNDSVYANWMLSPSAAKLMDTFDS

Experiments:
[1] = system: gastric cancer cell line (SNU16); experiment: tumor cell proliferation inhibition (CTG), gastric cancer cell line; format: cell-based; conditions: Homo sapiens, SNU-16, 72 h, read-out: SUN16 IC50
[2] = system: hepatocellular carcinoma cell line (Hep3B 2.1-7); experiment: tumor cell proliferation inhibition (CTG), hepatocellular carcinoma cell line; format: cell-based; conditions: Homo sapiens, 72 h, read-out: Hep3B 2.1-7 IC50
prostatic cancer (PC-3) = experiment: tumor cell proliferation inhibition (CTG), PC-3; format: cell-based; conditions: 72 h, read-out: PC-3 IC50
[3] = system: lung cancer cell line (A549); experiment: tumor cell proliferation inhibition (CTG), lung cancer cell line; format: cell-based; conditions: Homo sapiens, A549, 72 h, read-out: A549 (lung cancer) IC50
[4] = system: cervical cancer cell lines (Hela); experiment: tumor cell proliferation inhibition (CTG), cervical cancer cell line; format: cell-based; conditions: Homo sapiens, 72 h, read-out: Hela IC50
[5] = system: kidney cancer cell line (Caki-1); experiment: tumor cell proliferation inhibition (CTG), kidney cancer cell line; format: cell-based; conditions: Homo sapiens, CAKI-1, 72 h, read-out: Caki-1 (renal cancer) IC50
[6] = system: pancreatic cancer cell line (BXPC3); experiment: tumor cell proliferation inhibition (CTG), pancreatic cancer cell line; format: cell-based; conditions: Homo sapiens, BXPC-3, 72 h, read-out: BXPC3 (pancreatic cancer) IC50
RET = RET (Homo sapiens (Human), UniProt P07949); experiment: kinase inhibition, Mobility-Shift Assay; format: biochemical; conditions: read-out: RET IC50; 23 μM ATP

| SMILES | IC50 [1] | IC50 [2] | IC50 (prostatic cancer (PC-3)) | IC50 [3] | IC50 [4] | IC50 [5] | IC50 [6] | IC50 (RET) |
| --- | --- | --- | --- | --- | --- | --- | --- | --- |
| CNC(=O)c1cc(Oc2ccc(NC(=O)Nc3ccc(Cl)c(C(F)(F)F)c3)cc2)ccn1 [Sorafenib, sorafenib, reference compound] | > 10 µM | > 5 µM | > 10 µM | > 5 µM | > 10 µM | > 5 µM | > 10 µM |  |
| CNC(=O)c1cc(Oc2ccc(NC(=O)Nc3ccc(Cl)c(C(F)(F)F)c3)c(F)c2)ccn1 [Regorafenib, regorafenib, reference compound] |  |  |  |  |  |  |  | > 10 nM |
